Measurements taken from ChEMBL document CHEMBL1128305, “Metabotropic glutamate receptors: novel targets for drug development” (J Med Chem, 1995).
pEC50: −log10 of the molar value. Values joined by “and” are separate entries in the source; they are usually repeats but may differ in a detail not shown here. Equal values may be shown once.

Protein sequences, listed by entry. Tags and fused reporters are not part of them. Lines headed by an entry give the natural chain unless they say otherwise; changes in a name come on top.
UniProt P23385: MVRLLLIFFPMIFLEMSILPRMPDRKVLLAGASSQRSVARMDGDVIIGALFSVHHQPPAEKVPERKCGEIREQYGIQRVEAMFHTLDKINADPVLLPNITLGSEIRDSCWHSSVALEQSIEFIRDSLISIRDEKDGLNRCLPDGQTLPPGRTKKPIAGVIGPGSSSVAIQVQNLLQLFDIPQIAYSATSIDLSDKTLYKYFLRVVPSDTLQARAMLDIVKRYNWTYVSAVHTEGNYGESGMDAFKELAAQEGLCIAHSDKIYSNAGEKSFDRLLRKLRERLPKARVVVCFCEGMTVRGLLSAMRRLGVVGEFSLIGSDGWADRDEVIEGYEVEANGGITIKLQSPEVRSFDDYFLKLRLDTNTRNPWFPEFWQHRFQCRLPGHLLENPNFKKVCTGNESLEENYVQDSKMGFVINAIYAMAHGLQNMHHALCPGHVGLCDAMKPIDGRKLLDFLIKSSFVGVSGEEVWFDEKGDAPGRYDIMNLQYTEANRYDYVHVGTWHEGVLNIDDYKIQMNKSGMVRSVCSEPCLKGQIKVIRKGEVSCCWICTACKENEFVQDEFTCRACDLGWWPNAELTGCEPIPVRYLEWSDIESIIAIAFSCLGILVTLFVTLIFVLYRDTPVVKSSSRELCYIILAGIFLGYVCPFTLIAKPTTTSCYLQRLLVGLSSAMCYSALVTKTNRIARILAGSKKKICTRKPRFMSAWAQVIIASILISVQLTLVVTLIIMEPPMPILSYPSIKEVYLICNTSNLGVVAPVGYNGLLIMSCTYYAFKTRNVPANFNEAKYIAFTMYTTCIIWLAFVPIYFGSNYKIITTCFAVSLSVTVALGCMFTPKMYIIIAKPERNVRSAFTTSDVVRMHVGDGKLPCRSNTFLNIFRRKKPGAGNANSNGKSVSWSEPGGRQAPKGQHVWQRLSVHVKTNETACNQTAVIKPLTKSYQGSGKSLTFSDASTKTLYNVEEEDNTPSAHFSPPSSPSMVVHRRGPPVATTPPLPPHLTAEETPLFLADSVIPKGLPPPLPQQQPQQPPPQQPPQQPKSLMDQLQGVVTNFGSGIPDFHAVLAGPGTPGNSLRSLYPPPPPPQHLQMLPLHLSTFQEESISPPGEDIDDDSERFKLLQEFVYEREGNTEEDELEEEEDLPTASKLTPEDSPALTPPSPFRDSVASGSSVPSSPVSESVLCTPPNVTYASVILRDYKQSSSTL

Assays:
[1] = target: T1, Metabotropic glutamate receptor 1 (Rattus norvegicus, UniProt P23385); test: Concentration for half maximal activation of metabotropic glutamate mGluR1a in rat
[2] = target: T1, Metabotropic glutamate receptor 1; test: Concentration for half maximal activation of metabotropic glutamate mGluR1c in rat
[3] = target: T1, Metabotropic glutamate receptor 1; test: Concentration for half maximal activation of metabotropic glutamate mGluR1b in rat

With `N[C@@H](Cn1oc(=O)[nH]c1=O)C(=O)O` [QUISQUALATE] the pEC50 [1] was 6.70 and 6.15, the pEC50 [2] was 6.12 and the pEC50 [3] was 5.60.
